The conditions of data set [1]: Table S1, three classes; ref per compound in the footnotes of Table S1; cited from earlier work.
The test system of data set [2] is ESCs and ESC-derived neurons. As to conditions: reporter activity changes in the non-cytotoxic concentration range; highest possible number 4.
Data set [3] concerns Tubulin α1 (Tα1) promoter. The conditions noted are these: undifferentiated ESCs, 48 h exposure; lowest tested concentration with statistically significant decrease.
Data set [4] concerns EF1α promoter.
Data set [5] relates to EF1α promoter. As to conditions: undifferentiated ESCs, 48 h exposure.
Data set [6] deals with ESC-derived neurons. The conditions noted are these: 48 h exposure, PI assay (cytotoxicity).
Data set [7] has as its system CGR8-2Luc ESCs. The conditions noted are these: undifferentiated ESCs, 48 h exposure, PI assay (cytotoxicity).
For data set [8] the following is noted: ref Zimmer et al. ([2014]); cited from earlier work.
Data set [9] has as its system Tubulin α1 (Tα1) promoter. As to conditions: ESC-derived neurons, 48 h exposure.

A value given as a limit tells only on which side of the number the result lay.

Regarding “IFN-β: Activation of Janus kinase and Stat1/2; used for relapsing/remitting multiple sclerosis; Peptide/Protein”, the “class based on clinical evidence for neurotoxicity” value in [1] is reported as “Possibly (developmental)”. Also, the “Number of non-cytotoxic changes” value in data set [2] stood at 0. In addition, the “LOAEL ESC Tα1” value in data set [3] is above 0.0002 µM. Besides, the “effect on general promoter activity in neurons” value in [4] is recorded as “selectively increased”. The “LOAEL Neurons EF1α” value in [4] (ESC-derived neurons, 48 h exposure) is above 0.0002 µM. Further, the “LOAEL ESC EF1α” value in data set [5] is above 0.0002 µM. Besides, in data set [6], the “LOAEL Neurons DNA” value is above 0.0002 µM. Further, the “LOAEL ESC DNA” value in [7] was above 0.0002 µM. In [8], the Concentration in humans is recorded as 0.4*10^−6–7.5*10^−3k µM. The “LOAEL Neurons Tα1” value in data set [9] was above 0.0002 µM.
